Results reported in patent publication US4831029A, “Condensed cyclic triazole derivatives, pharmaceutical compositions and use” (priority 1986, dated 1989).

Experiment: Spasmolytic effect (inhibition of tetracor spasms)
Type: in vivo
From the text: The following test methods are used: Motility inhibition test: J. Borsy, E. Csanyi, J. Lazar: J. Arch. Int. Pharmacodyn. 124, 1-2 (1960); Inhibition of tetracor spasms: R. Benzinger, D. Hane: Arch. Int Pharmacodyn. 167, 245-249 (1967).

For `CN1C(=O)OC(C)(C)C1=O` [Trimetadion, reference compound], the “Spasmolytic effect T.I. (therapeutical index)” value was 4.3.
